Results from patent US20260035340A1, “INHIBITORS OF AKR1C3 AND METHODS OF USE” (BOARD OF REGENTS OF THE UNIVERSITY OF NEBRASKA, priority 2022, published 2026).

Chains of the proteins cited; added tags and fusions are not shown. Lines headed by an entry give the natural chain unless they say otherwise; changes in a name come on top.
UniProt P42330: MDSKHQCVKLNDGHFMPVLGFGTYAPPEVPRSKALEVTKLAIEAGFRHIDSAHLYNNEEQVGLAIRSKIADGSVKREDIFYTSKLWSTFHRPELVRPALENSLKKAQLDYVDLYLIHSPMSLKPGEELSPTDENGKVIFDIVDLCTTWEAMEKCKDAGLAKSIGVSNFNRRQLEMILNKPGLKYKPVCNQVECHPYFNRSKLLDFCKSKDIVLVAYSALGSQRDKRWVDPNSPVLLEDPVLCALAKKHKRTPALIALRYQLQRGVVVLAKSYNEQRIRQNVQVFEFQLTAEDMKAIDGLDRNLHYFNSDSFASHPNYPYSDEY

Molecular target: AKR1C3 (Homo sapiens (Human), UniProt P42330)
Test: AKR enzyme inhibition assay, NADP+ dependent oxidation of S-tetralol, AKR1C3
Assay type: biochemical

| Structure (SMILES) | Selectivity 1C2:1C3 (Table 2, ratio of AKR1C2 to AKR1C3 IC50) | selectivity over AKR1C2 (AKR1C3 over AKR1C2) |
| --- | --- | --- |
| Cc1ccc(CNC(=O)c2cc(/C=C/C(=O)O)cc(-c3ccc(Br)cc3)c2)cc1 [Compound A1-b, (E)-3-(4′-Bromo-5-((4-methylbenzyl)carbamoyl)-[1,1′-biphenyl]-3-yl)acrylic acid] | 277 | – |
| Cc1ccc(CNC(=O)c2cc(/C=C/C(=O)O)cc(-c3ccc4c(c3)OCO4)c2)cc1 [Compound A1-t, (E)-3-(3-(Benzo[d][1,3]dioxol-5-yl)-5-((4-methylbenzyl)carbamoyl)phenyl)acrylic acid] | – | 327 fold |
